logD, pKa and IC50 data for 17 compounds are collected here from ChEMBL document CHEMBL1123262, “Nonquaternary cholinesterase reactivators. 3. 3(5)-Substituted 1,2,4-oxadiazol-5(3)-aldoximes and 1,2,4-oxadiazole-5(3)-thiocarbohydroximates as reactivators of organophosphonate-inhibited eel and human acetylcholinesterase in vitro” (1986).

Protein sequences, listed by entry. Tags and fused reporters are not part of them. Residues count along the entry.
UniProt O42275, 24-633 limits assumed: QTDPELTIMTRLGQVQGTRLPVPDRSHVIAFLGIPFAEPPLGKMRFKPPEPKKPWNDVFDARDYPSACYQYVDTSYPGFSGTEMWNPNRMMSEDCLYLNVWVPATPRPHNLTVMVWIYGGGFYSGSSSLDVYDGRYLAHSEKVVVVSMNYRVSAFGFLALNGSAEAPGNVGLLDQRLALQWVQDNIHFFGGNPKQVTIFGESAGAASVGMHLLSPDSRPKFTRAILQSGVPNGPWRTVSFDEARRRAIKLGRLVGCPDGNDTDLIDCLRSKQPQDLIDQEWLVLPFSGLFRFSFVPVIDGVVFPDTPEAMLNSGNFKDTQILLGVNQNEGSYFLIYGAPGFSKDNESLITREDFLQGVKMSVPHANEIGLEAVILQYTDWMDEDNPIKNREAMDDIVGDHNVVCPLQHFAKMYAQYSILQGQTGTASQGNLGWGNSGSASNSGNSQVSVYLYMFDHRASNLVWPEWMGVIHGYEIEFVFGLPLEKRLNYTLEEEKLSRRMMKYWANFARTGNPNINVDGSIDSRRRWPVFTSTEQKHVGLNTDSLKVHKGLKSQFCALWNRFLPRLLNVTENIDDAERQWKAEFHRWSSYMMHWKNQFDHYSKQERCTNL
UniProt P22303, 32-614 limits assumed: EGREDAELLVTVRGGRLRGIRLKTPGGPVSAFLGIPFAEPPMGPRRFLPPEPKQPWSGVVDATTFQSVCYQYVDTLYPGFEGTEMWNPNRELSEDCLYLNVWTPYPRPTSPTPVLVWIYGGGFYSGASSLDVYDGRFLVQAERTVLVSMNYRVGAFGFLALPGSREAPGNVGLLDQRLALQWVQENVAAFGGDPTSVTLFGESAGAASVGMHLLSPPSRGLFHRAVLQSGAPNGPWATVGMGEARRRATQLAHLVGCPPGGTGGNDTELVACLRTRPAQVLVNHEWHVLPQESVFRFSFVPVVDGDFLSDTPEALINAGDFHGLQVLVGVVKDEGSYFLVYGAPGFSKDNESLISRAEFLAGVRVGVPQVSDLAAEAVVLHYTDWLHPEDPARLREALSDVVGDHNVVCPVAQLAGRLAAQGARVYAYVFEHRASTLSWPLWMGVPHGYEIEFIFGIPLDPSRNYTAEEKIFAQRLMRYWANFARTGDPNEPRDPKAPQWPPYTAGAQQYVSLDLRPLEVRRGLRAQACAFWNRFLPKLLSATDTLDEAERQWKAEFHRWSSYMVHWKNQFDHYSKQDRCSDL

A short description of data set [1]: Compound was tested for the ratio of octanol / buffer partition coefficient for 0.1M, pH 7.6 phosphate buffer. The note with it: octanol/water.
The nature of data set [2]: Compound as tested for the hydroxyimine methyl acid dissociation constant (pKa).
Data set [3] addresses T1, Acetylcholinesterase (Electrophorus electricus, UniProt O42275). In words: In vitro reversible inhibition of eel acetylcholinesterase.
Data set [4] addresses T2, Acetylcholinesterase (Homo sapiens, UniProt P22303). In words: Reactivation of human acetylcholinesterase.
In data set [5] the target is T2, Acetylcholinesterase. In words: Compound was tested for the concentration required for reversible inhibition of human acetylcholinesterase.
The target in data set [6] is T1, Acetylcholinesterase. Description: Compound was tested for the concentration required for reversible inhibition of eel acetylcholinesterase.

Structures are written as SMILES. Where “and” joins values, the source holds several entries; their conditions need not be identical. Equal values may be shown once.

As a reminder, the logD is lipophilicity at a set pH, counting ionised and neutral species. What is called pKa is the pH at which an ionisable group is half protonated. A higher pKa goes with a weaker acid or stronger base. As to `O/N=C/c1nc(Cc2ccccc2)no1`, in data set [1], the logD came to 2.18. Besides, the pKa in data set [2] worked out at 7.94.
As for `CCN(CC)CC/N=C(\NO)c1nc(-c2ccccc2)no1`, in data set [2], the pKa came to 9.85.
Turning to `CCN(CC)CCS/C(=N\O)c1nc(-c2ccccc2)no1.Cl`, in data set [1], the pH-dependent lipophilicity (logD) came out at 1.83. The compound further yielded a pKa in data set [2] of 7.36.
For orientation: IC50 means the concentration needed to halve the response being measured. As for `CCN(CC)CCS/C(=N\O)c1nc(-c2cccc3ccccc23)no1`, the logD in data set [1] was 2.92. This compound also returned an IC50 on Acetylcholinesterase [3] of 1.3 µM. The pKa in data set [2] is 6.5.
With `Cc1noc(/C=N/O)n1`, in data set [1], the log distribution coefficient (logD) came out at 0.47. Moreover, in data set [2], the pKa was 8.11.
As for `O/N=C/c1nc(-c2ccccc2)no1`, the logD in data set [1] is 2.61 and 2.33. In data set [2], the pKa is 7.94 and 8.12.
With `CCN(CC)CCS/C(=N\O)c1nc(C)no1`, the logD in data set [1] is -0.41. Besides, the half-inhibitory concentration (IC50) at Acetylcholinesterase [4] came out at 90 µM. Moreover, the pKa in data set [2] came to 6.32.
Regarding `CCN(CC)CCS/C(=N\O)c1nc(C(C)(C)C)no1`, the log distribution coefficient (logD) in data set [1] came out at 1.16. The same compound gave a concentration for half-maximal inhibition (IC50) at Acetylcholinesterase [3] of 99 µM. In addition, in data set [2], the pKa came out at 6.61.
Take `CC(C)(C)c1noc(/C=N/O)n1`: the pH-dependent lipophilicity (logD) in data set [1] was 2.03. The pKa in data set [2] was 7.91.
In the case of `O/N=C/c1nc(-c2ccncc2)no1`, the pKa in data set [2] was 8.
As for `O/N=C/c1nc(-c2cccc3ccccc23)no1`, the logD in data set [1] is greater than 3. Besides, the pKa in data set [2] was found to be 8.05.
Regarding `O/N=C/c1nc(-c2cccs2)no1`, the logD in data set [1] came out at 2.38. The pKa in data set [2] was 8.03.
`CCN(CC)CCS/C(=N\O)c1nc(-c2ccccc2)no1`: the logD in data set [1] is 1.78. Also, the IC50 at Acetylcholinesterase [4] was found to be 6 µM; against Acetylcholinesterase [3] it was 7.5 µM. Moreover, the pKa in data set [2] is 6.32.
In turn, `Cc1noc(/C=N\O)n1` yielded a pKa in data set [2] of 8.6.
In the case of `CCCCCCCCc1noc(/C=N/O)n1`, the logD in data set [1] came out at 3. For the same compound, in data set [2], the pKa came out at 8.22.
In the case of `CCN(CC)CCS/C(=N\O)c1nc(Cc2ccccc2)no1`, in data set [1], the logD stood at 1.28. For the same compound, the IC50 against Acetylcholinesterase [4] amounted to 30 µM; against Acetylcholinesterase [3] it was 55 µM. The pKa in data set [2] was 6.19.
For the compound `CCCCCCCCc1noc(/C(=N/O)SCCN(CC)CC)n1`, in data set [1], the logD is greater than 3. Further, the IC50 is 1 µM on Acetylcholinesterase [5] and 1.4 µM on Acetylcholinesterase [6]. The compound further registered a pKa in data set [2] of 6.34.
